Data: paper PMC12457078, “Inhibition of soluble epoxide hydrolase in endotoxin induced pig lung injury” (Frontiers in Pharmacology, 2025)

Test system: sEH
Experiment: oxylipin analysis, epoxide/diol ratios (target engagement)
Assay type: in vivo, pig
Set-up: 12,13-DiHOME / 9(10)-EpOME / 12(13)-EpOME: unit not given here
Settings: 6 hours

## CCOCCOCCOCCCCCNC(=O)NC12CC3CC(CC(C3)C1)C2 [Compound 950]
AEPU group, mean (SD)
  9(10)-EpOME: 1.47 (1.12) nM
  9,10-DiHOME: 5.21 (3.00) nM
  12(13)-EpOME: 5.12 (4.71) nM
  12,13-DiHOME: 17.24 (10.55) nM
  15(16)-EpODE: 26.10 (27.79) nM
  15,16-DiHODE: 38.08 (23.02) nM
AEPU vs placebo
  Hedges’ G (95% CI), 9(10)-EpOME: 0.86 (−0.06–1.76)
  Hedges’ G (95% CI), 12(13)-EpOME: 1.06 (0.12–1.98)
  Hedges’ G (95% CI), 15(16)-EpODE: 0.49 (−0.40–1.36)
  Hedges’ G (95% CI), 15,16-DiHODE: 0.23 (−0.64–1.09)
